System: TNFR1 and TNFR2
Assay: Relative affinity of TNF variants to TNFR1 versus TNFR2
Type: binding
Conditions: log10(R1/R2), R1 and R2 affinities of TNF to TNFR1 and TNFR2 (relative affinity % Kd)
Excerpt: The TNF dataset, disclosed in the article from Mukai Y et al. (J Mol Biol. 2009 Jan. 30; 385(4):1221-9) “Structure-function relationship of tumor necrosis factor (TNF) and its receptor interaction based on 3D structural analysis of a fully active TNFR1-selective TNF mutant”, is a collection of 20 mutants and one WT Tumour Necrosis Factor (TNF) sequences (WT sequence corresponds to SEQ ID NO: 6). TNF is an important cytokine that suppresses carcinogenesis and excludes infectious pathogens to maintain homeostasis.

**Q.** “WT_157aa: WT Tumour Necrosis Factor (TNF) sequence” was tested. Which relative binding affinities did it give?
**A.** The relative binding affinities was 0.

— patent US20210265014A1, “METHOD AND ELECTRONIC SYSTEM FOR PREDICTING AT LEAST ONE FITNESS VALUE OF A PROTEIN VIA AN EXTENDED NUMERICAL SEQUENCE, RELATED COMPUTER PROGRAM PRODUCT” (PEACCEL, priority 2018, published 2021)
